# Source: PubChem (National Center for Advancing Translational Sciences (NCATS))
# This is a sample that favours compounds with a hit; in the whole collection about 2.3% have one here.
# Mito fusion yeast: mitochondrial division inhibition or fusion activation; S. cerevisiae fusion-defective mutant growth rescue, CellTiterGlo 48 h; Potency, µM (titrated, usually from 46.1 µM), inactives show at the highest dose growth rescue (activation), hits mostly activators; 0.23% of 320,000 active; note: potency is the fitted concentration of half-maximal effect; % of control where 0% means no effect; nearly all actives have a fitted effect of over 45% in size
#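 Compounds are tested for their ability to restore growth of mitochondrial fusion-defective yeast strains at non-permissive 37C in YPEG medium over 48 hours. Viability is quantified by luciferase luminescence.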
# Glioma ERSR ind: ER stress response induction in glioma. U87-MG GRP78 promoter luciferase reporter, 16 h. Potency, µM, for the others: top-dose activation, hits mostly activators. 0.02% of 420,000 active; note: potency is the fitted concentration of half-maximal effect; series mostly up to about 76 µM; % of control where 0% means no effect; nearly all actives have a fitted effect of over 35% in size
#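 ERSR induction read as luciferase luminescence (Bright-Glo, 10 min at room temperature) in stably transfected human U87-MG glioma cells exposed to compounds for 16 h, using GRP78 as sensor.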
# Nrf2 activator: activators of Nrf2 (ARE) signaling; AREc32 ARE-luciferase reporter (MCF7-derived line), luminescence, 24 h; Potency, µM (titrated, usually from 46.1 µM), for inactives: top-dose activation, usual class: activators; 0.31% of 410,000 active; note: potency is the fitted concentration of half-maximal effect; % of control where 0% means no effect; nearly all actives have a fitted effect of over 65% in size
#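 ARE-driven firefly luciferase activity in AREc32 cells measured after a 24 hr compound exposure at 37 deg C, using Steady-Glo reagent and a 30 min room-temperature hold.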
# A549 tox: A549 cytotoxicity, counter-screen for Nrf2 inhibitors | A549 ARE-Fluc cells, CellTiter-Fluor viability, 18-24 h | Potency, µM (series often up to 46 µM), without a hit: at the top dose activity change, negative = cytotoxicity, hits mostly inhibitors | 0.16% of 390,000 active | AID 504648; note: potency is the fitted concentration of half-maximal effect; % is set by controls: 0 for no effect and ±100 for the full control effect
#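 A549 ARE_Fluc cells in 5% FBS OPTI-MEM were exposed to compounds in concentration-response for 18-24 h at 37 deg C. Viability was read by CellTiter-Fluor fluorescence (Ex 405/Em 525) after 30 min, before the luciferase read.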
# Nrf2 block: inhibitors of Nrf2 signaling | A549 ARE-Fluc reporter, luciferase luminescence, 18-24 h | Potency, µM (titrated, usually from 46 µM), for inactives: top-dose activity change, negative = inhibition, hits mostly inhibitors | 2.1% of 360,000 active | AID 504444; note: potency is the fitted concentration of half-maximal effect; % is set by controls: 0 for no effect and ±100 for the full control effect; nearly all actives have a fitted effect of over 60% in size
#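 Reporter: ARE-Fluc in A549. Exposure: 18-24 h, 37 °C, 5% CO2, 5% FBS OPTI-MEM. Readouts: fluorescent cytotoxicity (CellTiter-Fluor), then luminescent Nrf2 signal after BugLite.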
# miR-21 reporter: miR-21 reporter, rising signal | AID 2288 | HeLa miR-21 FLuc reporter, luciferase, 48 h | 340,000 tested, under 10 active | Potency, µM (doses to about 38.3 µM), for inactives: at the top dose reporter change, positive = more light; active = well fitted rising curve with a large enough effect; inconclusive = small, poorly fitted or top-dose-only effect; inactive = no such curve, though single readings can be large or run the other way;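 note: % of control where 0% means no effect; miR-21 action dims this reporter so a rising signal means less miR-21 action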
#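 HeLa cells stably expressing CMV-driven firefly luciferase with a downstream miR-21 binding sequence, endogenously expressing miR-21, were treated with titrations (up to about 40uM final) for 48 hours at 37 degree Celsius. Luciferase luminescence was read after lysis.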
# Starred values were filed as active, the others as inactive; ? = inconclusive; . = no result; [ ] = remark or other dose. Unless noted, calls come from the whole dose curve; as a rule, active = well fitted curve in the direction sought with a large enough effect; inconclusive = small, poorly fitted or top-dose-only effect, or another doubt; inactive = no such curve, though single readings can be large; an effect the other way counts as inactive or inconclusive.
# Key to letters: A = Mito fusion yeast; B = Glioma ERSR ind; C = Nrf2 activator; D = A549 tox; E = Nrf2 block; F = miR-21 reporter
Cc1ccc(CC(=O)NCc2nc(-c3cccc(C)c3)no2)cc1
  A: . | B: -2.0% | C: 1.2% | D: 1.7% | E: -4.2% | F: -4.7%

COc1ccc(-n2nnnc2-c2cnc(N3CCCC3)nc2C(F)(F)F)cc1
  A: -3.5% | B: 3.7% | C: 3.9% | D: -23.5% | E: 18.4µM* | F: 21.5%

FC(F)(F)c1nc(-c2cccnc2)ncc1-c1nnnn1-c1ccccc1
  A: 5.7% | B: -5.5% | C: -0.2% | D: -1.6% | E: -38.8% | F: 17.8%

CNc1ncc(-c2nnnn2-c2ccccc2)c(-c2ccccc2)n1
  A: -1.8% | B: -1.1% | C: -1.0% | D: -13.0% | E: -15.2% | F: 19.2%

Clc1ccc(-n2nnnc2-c2cnc(-c3ccncc3)nc2-c2cccs2)cc1
  A: 14.1µM* | B: -2.8% | C: -0.4% | D: -13.8% | E: ? | F: -3.1%

FC(F)(F)c1nc(-c2cccs2)ncc1-c1nnnn1-c1ccc(Cl)cc1
  A: 1.8% | B: -12.6% | C: -1.6% | D: ? | E: 23.1µM* | F: ?

COc1ccc(-n2nnnc2-c2cccnc2)cc1
  A: -4.4% | B: 2.2% | C: -0.4% | D: 3.0% | E: 23.9% | F: -1.0%

COc1ccc(C(=O)N2CC(=O)Nc3ccc(C)cc3C2c2ccccc2)c(OC)c1 (configuration not stated)
  A: . | B: -1.0% | C: 4.5% | D: 1.8% | E: 0.9%[9.27 µM] | F: 14.3%

Cc1cn(C2CC3OCC(NC(=O)C(Cc4ccccc4)NC(=O)OC(C)(C)C)C3O2)c(=O)[nH]c1=O (configuration not stated)
  A: . | B: -1.9% | C: . | D: 0.5% | E: 10.7% | F: .

N#Cc1cc(C(=O)c2cc(F)ccc2O)cn(-c2nccs2)c1=O
  A: 5.3% | B: -5.5% | C: 8.0% | D: 3.0% | E: 17.2% | F: 5.7%

# Entries above with a carbonyl joined to an NH by a bond outside any ring (two):
# Key to letters: A = Mito fusion yeast; B = Glioma ERSR ind; C = Nrf2 activator; D = A549 tox; E = Nrf2 block; F = miR-21 reporter
Cc1ccc(CC(=O)NCc2nc(-c3cccc(C)c3)no2)cc1
  A: . | B: -2.0% | C: 1.2% | D: 1.7% | E: -4.2% | F: -4.7%

Cc1cn(C2CC3OCC(NC(=O)C(Cc4ccccc4)NC(=O)OC(C)(C)C)C3O2)c(=O)[nH]c1=O (configuration not stated)
  A: . | B: -1.9% | C: . | D: 0.5% | E: 10.7% | F: .

# Further entries:
# Key to letters: A = Mito fusion yeast; B = Glioma ERSR ind; C = Nrf2 activator; D = A549 tox; E = Nrf2 block; F = miR-21 reporter
N#Cc1cc(C(=O)c2ccccc2O)cn(-c2nccs2)c1=O
  A: 0.2% | B: 1.5% | C: 22.4µM* | D: 0.0% | E: -1.7% | F: 4.6%

Cc1ccc(S(=O)(=O)N2[C@@H](c3ccc(C(C)(C)C)cc3)C(C(=O)O)=CC[C@H]2c2ccc3c(c2)OCO3)cc1
  A: . | B: 0.3% | C: 0.9% | D: -21.2% | E: 23.1µM* | F: .

CCSc1nn(CC(=O)Nc2cccc(CC)c2)c(N)c1S(=O)(=O)c1ccccc1
  A: . | B: -3.8% | C: -1.0% | D: -16.3% | E: ? | F: 16.0%

CCSc1nn(CC(=O)Nc2cccc(Cl)c2)c(N)c1S(=O)(=O)c1ccc(OC)cc1
  A: . | B: -3.3% | C: -1.8% | D: ? | E: 18.4µM* | F: 29.7%

CCc1ccc(NC(=O)Cn2nc(SC)c(S(=O)(=O)c3ccc(OC)cc3)c2N)cc1
  A: . | B: 1.0% | C: 0.4% | D: 8.6% | E: ? | F: -0.4%

COc1ccc(S(=O)(=O)c2c(SC)nn(CC(=O)Nc3ccc(C)c(Cl)c3)c2N)cc1
  A: . | B: -2.1% | C: 0.1% | D: ? | E: 23.1µM* | F: ?

COc1ccc(C2=C(c3ccc(OC)c(OC)c3)CN3CCCCC3C2)cc1 (configuration not stated)
  A: . | B: -4.9% | C: 2.6% | D: 6.5% | E: 16.2% | F: .

O=C(NC(=S)N1CCc2ccccc21)c1ccccc1Br
  A: 24.3% | B: -2.3% | C: 28.1% | D: -7.1% | E: ? | F: -47.7%

COc1ccccc1CNC(=O)Cn1cc2c(n1)-c1c(oc(C(=O)N3CCOCC3)c1C)CC2
  A: . | B: -3.2% | C: 1.0% | D: -8.7% | E: ? | F: 13.1%

N#CCSc1nccc(-c2cc(Cl)sc2Cl)n1
  A: 0.2% | B: -3.4% | C: 7.94µM* | D: 1.0% | E: -17.3% | F: -7.3%

C=CCSc1nccc(-c2cc(Cl)sc2Cl)n1
  A: -2.1% | B: -2.4% | C: 10µM* | D: 6.5% | E: 4.5% | F: -9.8%

C=CCSc1ncc(-c2ccccc2)cn1
  A: -18.6% | B: 4.1% | C: 2.7% | D: 0.3% | E: ? | F: -53.7%

CC1=Nc2cc(C(=O)NCCN3CCOCC3)ccc2Sc2c(C)ccc(C)c21
  A: 6.5% | B: -4.9% | C: -0.3% | D: -0.4% | E: -12.7% | F: 25.1%

Cc1ccc(C(C(=O)NC2CCCC2)N(Cc2ccco2)C(=O)CCC(=O)Nc2cc(C)on2)cc1 (configuration not stated)
  A: -0.7% | B: -2.6% | C: 0.0% | D: -7.1% | E: 0.1% | F: 2.3%

Cc1sc2ncnc(N3CCN(c4ncccn4)CC3)c2c1C
  A: 0.8% | B: -6.2% | C: -0.7% | D: -12.2% | E: 14.6µM* | F: 14.9%

CCS(=O)(=O)N1CCN(c2ncnc3sc(C)c(C)c23)CC1
  A: 4.1% | B: -2.7% | C: -0.5% | D: 2.2% | E: -13.5% | F: 0.9%
